{"source": "paper PMC5007486", "about": "“Thermodynamic instability of viral proteins is a pathogen-associated molecular pattern targeted by human defensins” (Scientific Reports, 2016)", "key": {"PFV IN": {"system": "PFV IN", "assay_type": "binding, prototype foamy virus (PFV)", "conditions": "DSF, SYPRO Orange, 20 mM HEPES pH 7.5, 150 mM NaCl; protein 7 μM; 3-fold molar excess of defensin; protein alone 47.6 ± 0.1; error = SEM", "description": "(§1) Differential scanning fluorimetry (DSF)"}, "TEV Protease": {"system": "TEV Protease", "assay_type": "binding, tobacco etch virus (TEV)", "conditions": "DSF, SYPRO Orange, 20 mM HEPES pH 7.5, 150 mM NaCl; protein 5 μM; 3-fold molar excess of defensin; protein alone 43.7 ± 0.2; error = SEM", "description": "as §1"}}, "data": [{"substance": "HNP-1: human neutrophil α-defensin peptide HNP-1, prepared by solid-phase peptide synthesis", "values": [{"measurement": "Melting temperature (Tm) of PFV IN", "setting": "PFV IN", "value": "43.3 ± 0.1", "unit": "°C"}, {"measurement": "Melting temperature (Tm) of TEV Protease", "setting": "TEV Protease", "value": "34.9 ± 0.2", "unit": "°C"}]}]}
